This is an account of results in US5080884A, “Hydrocarbylphenyl diaminodithiol radionuclide complexes and their use in imaging” (Medi-Physics, Inc., priority 1991, dated 1992).

The nature of data set [1]: Electrophoresis of Tc-99m complex (NaH2PO4, pH 4.5). In kind it is physicochemical.
A short description of data set [2]: Biological distribution of Tc-99m complexes in rats (pentobarbital anesthesia). In kind it is in vivo, Female Sprague-Dawley rats. The following applies: average of 2 rats; for Blood, % Injected Dose/Gram Tissue / Brain, % Injected Dose/Gram Tissue / Heart, % Injected Dose/Gram Tissue: pentobarbital anesthesia; for Brain:Blood / Heart:Blood: ratio. As for the experimental part: Distribution of the Tc-99m labeled compounds was evaluated in rats. Female Sprague-Dawley rats weighing 140 to 220 g (average 170 g) were anesthetized with sodium pentobarbital and were injected in a tail vein with from 0.05 to 10 mCi of the Tc-99m labeled complex in a volume of 0.2 to 0.5 ml. At least two rats were injected for each time point.
The animals were sacrificed at 5 and 30 minutes after injection and selected organs were removed; the tails were discharged to avoid interference from the injection site. The radioactivity in each organ was measured at a standard geometry with a […] sodium iodide scintillation detector adjusted for the 140 KeV emission of Tc-99m. The organs were also weighed to one hundredth of a gram and the activity was calculated as a percent of administered dose per gram.

[3] abbreviates: 0.05 M NaH2PO4, pH 4.5, 300 volts, 30 min.
[4] abbreviates: 5 min after i.v. (tail vein) injection.
Where [5] appears, read: 30 min after i.v. (tail vein) injection.
[6] abbreviates: 0.05 M NaH2PO4, pH 4.5, 300 volts, 45 min.

Consider “Tc-99m complex of 2-(2-mercapto-2-methylpropylamino)-1-[2-(2-propynylthio)-2-methylpropylamino]benzene [Example 27]”, for which the Electrophoresis result in data set [1] (setting [3]) is reported as “neutral”. Further, in data set [2] (setting [4]), the “Blood, % Injected Dose/Gram Tissue” value is listed as 0.47 % Injected Dose/Gram Tissue; the “Brain, % Injected Dose/Gram Tissue” value was 0.82 % Injected Dose/Gram Tissue; the “Heart, % Injected Dose/Gram Tissue” value was 5.26 % Injected Dose/Gram Tissue. In data set [2] (setting [5]), the “Blood, % Injected Dose/Gram Tissue” value is 0.19 % Injected Dose/Gram Tissue; the “Brain, % Injected Dose/Gram Tissue” value is listed as 0.67 % Injected Dose/Gram Tissue; the “Heart, % Injected Dose/Gram Tissue” value is listed as 3.28 % Injected Dose/Gram Tissue. Also, in data set [2] (5 min after i.v. injection), the “Brain:Blood” value came to 1.75 and the “Heart:Blood” value was determined as 11.28. In data set [2] (30 min after i.v. injection), the “Brain:Blood” value amounted to 3.54 and the “Heart:Blood” value worked out at 17.34.

Take “Tc-99m complex of 2-(2-butylthio)2-methylpropylamino)-1-(2-mercapto-2-methylpropylamino)benzene [Example 43]”: the Electrophoresis entry in data set [1] (setting [3]) is listed as “neutral”. Moreover, in data set [2] (setting [4]), the “Blood, % Injected Dose/Gram Tissue” value is 0.81 % Injected Dose/Gram Tissue; the “Brain, % Injected Dose/Gram Tissue” value is 0.41 % Injected Dose/Gram Tissue; the “Heart, % Injected Dose/Gram Tissue” value is 2.02 % Injected Dose/Gram Tissue. In addition, in data set [2] (setting [5]), the “Blood, % Injected Dose/Gram Tissue” value is on record as 0.35 % Injected Dose/Gram Tissue; the “Brain, % Injected Dose/Gram Tissue” value is reported as 0.43 % Injected Dose/Gram Tissue; the “Heart, % Injected Dose/Gram Tissue” value is listed as 0.96 % Injected Dose/Gram Tissue. Also, in data set [2] (5 min after i.v. injection), the “Brain:Blood” value worked out at 0.51 and the “Heart:Blood” value is recorded as 2.50. In data set [2] (30 min after i.v. injection), the “Brain:Blood” value is reported as 1.24 and the “Heart:Blood” value was determined as 2.77.

For “Tc-99m complex of 1-[2-(trans-2-butenylthio)-2-methylpropylamino]-2-(2-mercapto-2-methylpropylamino) benzene [Example 11]”, the Electrophoresis entry in data set [1] (setting [6]) was “neutral”. In addition, in data set [2] (setting [4]), the “Blood, % Injected Dose/Gram Tissue” value was 0.26 % Injected Dose/Gram Tissue; the “Brain, % Injected Dose/Gram Tissue” value is 0.50 % Injected Dose/Gram Tissue; the “Heart, % Injected Dose/Gram Tissue” value is on record as 2.40 % Injected Dose/Gram Tissue. In data set [2] (setting [5]), the “Blood, % Injected Dose/Gram Tissue” value is 0.19 % Injected Dose/Gram Tissue; the “Brain, % Injected Dose/Gram Tissue” value is 0.49 % Injected Dose/Gram Tissue; the “Heart, % Injected Dose/Gram Tissue” value was 1.13 % Injected Dose/Gram Tissue. In addition, in data set [2] (5 min after i.v. injection), the “Brain:Blood” value was found to be 1.94 and the “Heart:Blood” value was determined as 9.29. For the same substance, in data set [2] (30 min after i.v. injection), the “Brain:Blood” value was determined as 2.58 and the “Heart:Blood” value turned out to be 6.01.

For the substance “Tc-99m complex of 1-(2-vinylthio-2-methylpropylamino)-2-(2-mercapto-2-methylpropylamino)benzene [Example 48]”, the Electrophoresis result in data set [1] (setting [3]) is listed as “neutral”. Besides, in data set [2] (setting [4]), the “Blood, % Injected Dose/Gram Tissue” value is recorded as 0.61 % Injected Dose/Gram Tissue; the “Brain, % Injected Dose/Gram Tissue” value is listed as 0.56 % Injected Dose/Gram Tissue; the “Heart, % Injected Dose/Gram Tissue” value was 3.51 % Injected Dose/Gram Tissue. In data set [2] (setting [5]), the “Blood, % Injected Dose/Gram Tissue” value is 0.30 % Injected Dose/Gram Tissue; the “Brain, % Injected Dose/Gram Tissue” value is listed as 0.57 % Injected Dose/Gram Tissue; the “Heart, % Injected Dose/Gram Tissue” value is given as 3.05 % Injected Dose/Gram Tissue. In data set [2] (5 min after i.v. injection), the “Brain:Blood” value was determined as 0.92 and the “Heart:Blood” value is given as 5.75. Also, in data set [2] (30 min after i.v. injection), the “Brain:Blood” value was 1.92 and the “Heart:Blood” value was determined as 10.32.

As for “Tc-99m complex of 1-[2-(3-butenylthio)-2-methylpropylamino]-2-(2-mercapto-2-methylpropylamino)benzene [Example 19]”, in data set [2] (setting [4]), the “Blood, % Injected Dose/Gram Tissue” value is on record as 0.36 % Injected Dose/Gram Tissue; the “Brain, % Injected Dose/Gram Tissue” value was 0.80 % Injected Dose/Gram Tissue; the “Heart, % Injected Dose/Gram Tissue” value was 3.40 % Injected Dose/Gram Tissue. Besides, in data set [2] (setting [5]), the “Blood, % Injected Dose/Gram Tissue” value was 0.18 % Injected Dose/Gram Tissue; the “Brain, % Injected Dose/Gram Tissue” value is listed as 0.69 % Injected Dose/Gram Tissue; the “Heart, % Injected Dose/Gram Tissue” value is given as 1.52 % Injected Dose/Gram Tissue. In data set [2] (5 min after i.v. injection), the “Brain:Blood” value is reported as 2.20. In data set [2] (30 min after i.v. injection), the “Brain:Blood” value is 3.76 and the “Heart:Blood” value is 8.30.

With “Tc-99m complex of 2-(2-mercapto-2-methylpropylamino)-1-[2-(4-pentenylthio)-2-methylpropylamino]benzene [Example 7]”, in data set [1] (0.5 M NaH2PO4, pH 4.5, 300 volts, 45 min), the Electrophoresis entry is reported as “neutral”. In data set [2] (setting [4]), the “Blood, % Injected Dose/Gram Tissue” value is reported as 0.20 % Injected Dose/Gram Tissue; the “Brain, % Injected Dose/Gram Tissue” value is 0.44 % Injected Dose/Gram Tissue; the “Heart, % Injected Dose/Gram Tissue” value is 2.64 % Injected Dose/Gram Tissue. Further, in data set [2] (setting [5]), the “Blood, % Injected Dose/Gram Tissue” value was 0.12 % Injected Dose/Gram Tissue; the “Brain, % Injected Dose/Gram Tissue” value is 0.48 % Injected Dose/Gram Tissue; the “Heart, % Injected Dose/Gram Tissue” value was 1.33 % Injected Dose/Gram Tissue. In data set [2] (5 min after i.v. injection), the “Brain:Blood” value was found to be 2.17 and the “Heart:Blood” value is on record as 13.00. Further, in data set [2] (30 min after i.v. injection), the “Brain:Blood” value came out at 4.11 and the “Heart:Blood” value came to 11.36.

On to “Tc-99m complex of 1-[2-methylthio-2-methylpropylamino]-2-(2-mercapto-2-methylpropylamino)benzene [Example 44]”, for which, in data set [1] (setting [3]), the Electrophoresis entry is given as “neutral”. Also, in data set [2] (setting [4]), the “Blood, % Injected Dose/Gram Tissue” value is reported as 0.12 % Injected Dose/Gram Tissue; the “Brain, % Injected Dose/Gram Tissue” value is recorded as 0.78 % Injected Dose/Gram Tissue; the “Heart, % Injected Dose/Gram Tissue” value was 1.48 % Injected Dose/Gram Tissue. For the same substance, in data set [2] (setting [5]), the “Blood, % Injected Dose/Gram Tissue” value is 0.07 % Injected Dose/Gram Tissue; the “Brain, % Injected Dose/Gram Tissue” value was 0.44 % Injected Dose/Gram Tissue; the “Heart, % Injected Dose/Gram Tissue” value is 0.50 % Injected Dose/Gram Tissue. In data set [2] (5 min after i.v. injection), the “Brain:Blood” value was determined as 6.46 and the “Heart:Blood” value is on record as 12.16. Also, in data set [2] (30 min after i.v. injection), the “Brain:Blood” value was 6.19 and the “Heart:Blood” value was determined as 7.12.

In the case of “Tc-99m complex of 1-[2-cyclopropylmethylthio-2-methylpropylamino)-2-(2-mercapto-2-methyl-propylamino) benzene [Example 57]”, the Electrophoresis result in data set [1] (setting [6]) is on record as “neutral”. Also, in data set [2] (setting [4]), the “Blood, % Injected Dose/Gram Tissue” value was 0.20 % Injected Dose/Gram Tissue; the “Brain, % Injected Dose/Gram Tissue” value is 0.54 % Injected Dose/Gram Tissue; the “Heart, % Injected Dose/Gram Tissue” value was 2.12 % Injected Dose/Gram Tissue. Also, in data set [2] (setting [5]), the “Blood, % Injected Dose/Gram Tissue” value is reported as 0.11 % Injected Dose/Gram Tissue; the “Brain, % Injected Dose/Gram Tissue” value was 0.47 % Injected Dose/Gram Tissue; the “Heart, % Injected Dose/Gram Tissue” value is on record as 0.86 % Injected Dose/Gram Tissue. Moreover, in data set [2] (5 min after i.v. injection), the “Brain:Blood” value came out at 2.63 and the “Heart:Blood” value was 10.34. Also, in data set [2] (30 min after i.v. injection), the “Brain:Blood” value is listed as 4.18 and the “Heart:Blood” value was determined as 7.68.

Turning to “Tc-99m complex of 1-[2-(2-methyl-2-propenylthio)-2-methylpropylamino]-2-(2-mercapto-2-methylpropylamino)benzene [Example 45]”, the Electrophoresis result in data set [1] (setting [3]) is given as “neutral”. In data set [2] (setting [4]), the “Blood, % Injected Dose/Gram Tissue” value is given as 0.30 % Injected Dose/Gram Tissue; the “Brain, % Injected Dose/Gram Tissue” value is given as 0.60 % Injected Dose/Gram Tissue; the “Heart, % Injected Dose/Gram Tissue” value is on record as 3.40 % Injected Dose/Gram Tissue. In data set [2] (setting [5]), the “Blood, % Injected Dose/Gram Tissue” value is reported as 0.19 % Injected Dose/Gram Tissue; the “Brain, % Injected Dose/Gram Tissue” value is reported as 0.55 % Injected Dose/Gram Tissue; the “Heart, % Injected Dose/Gram Tissue” value is on record as 2.24 % Injected Dose/Gram Tissue. For the same substance, in data set [2] (5 min after i.v. injection), the “Brain:Blood” value was 2.01 and the “Heart:Blood” value amounted to 11.40. In addition, in data set [2] (30 min after i.v. injection), the “Brain:Blood” value is given as 2.90 and the “Heart:Blood” value was determined as 11.81.

As to “Tc-99m complex of 2-(2-Mercapto-2-methylpropylamino)-1-[2-(1-methylethylthio)-2-methylpropylamino]benzene [Example 38]”, in data set [2] (setting [4]), the “Blood, % Injected Dose/Gram Tissue” value is on record as 0.34 % Injected Dose/Gram Tissue; the “Brain, % Injected Dose/Gram Tissue” value is reported as 0.73 % Injected Dose/Gram Tissue; the “Heart, % Injected Dose/Gram Tissue” value was 2.48 % Injected Dose/Gram Tissue. Further, in data set [2] (setting [5]), the “Blood, % Injected Dose/Gram Tissue” value was 0.27 % Injected Dose/Gram Tissue; the “Brain, % Injected Dose/Gram Tissue” value is reported as 0.67 % Injected Dose/Gram Tissue; the “Heart, % Injected Dose/Gram Tissue” value is 1.04 % Injected Dose/Gram Tissue. Further, in data set [2] (5 min after i.v. injection), the “Brain:Blood” value is listed as 2.13 and the “Heart:Blood” value is 7.22. Moreover, in data set [2] (30 min after i.v. injection), the “Brain:Blood” value is 2.44 and the “Heart:Blood” value came out at 3.78.

For the substance “Tc-99m complex of 2-(2-mercapto-2-methylpropylamino)-1-[2-(1-methylpropylthio)-2-methylpropylamino)benzene [Example 46]”, the Electrophoresis entry in data set [1] (setting [6]) is “neutral”. In addition, in data set [2] (setting [4]), the “Blood, % Injected Dose/Gram Tissue” value was 0.23 % Injected Dose/Gram Tissue; the “Brain, % Injected Dose/Gram Tissue” value is reported as 0.64 % Injected Dose/Gram Tissue; the “Heart, % Injected Dose/Gram Tissue” value is 2.96 % Injected Dose/Gram Tissue. In data set [2] (setting [5]), the “Blood, % Injected Dose/Gram Tissue” value is listed as 0.15 % Injected Dose/Gram Tissue; the “Brain, % Injected Dose/Gram Tissue” value was 0.57 % Injected Dose/Gram Tissue; the “Heart, % Injected Dose/Gram Tissue” value is listed as 1.28 % Injected Dose/Gram Tissue. Further, in data set [2] (5 min after i.v. injection), the “Brain:Blood” value was determined as 2.81 and the “Heart:Blood” value is recorded as 12.94. Moreover, in data set [2] (30 min after i.v. injection), the “Brain:Blood” value was 3.71 and the “Heart:Blood” value was determined as 8.35.
